Experimental findings from US20250092058A1 (priority 2018, published 2025) are described below.

By UniProt entry, the sequences of proteins in these tests, tags left out. Where a name states a change or a piece, a line headed by the entry shows the natural chain unless it says otherwise.
UniProt P17844: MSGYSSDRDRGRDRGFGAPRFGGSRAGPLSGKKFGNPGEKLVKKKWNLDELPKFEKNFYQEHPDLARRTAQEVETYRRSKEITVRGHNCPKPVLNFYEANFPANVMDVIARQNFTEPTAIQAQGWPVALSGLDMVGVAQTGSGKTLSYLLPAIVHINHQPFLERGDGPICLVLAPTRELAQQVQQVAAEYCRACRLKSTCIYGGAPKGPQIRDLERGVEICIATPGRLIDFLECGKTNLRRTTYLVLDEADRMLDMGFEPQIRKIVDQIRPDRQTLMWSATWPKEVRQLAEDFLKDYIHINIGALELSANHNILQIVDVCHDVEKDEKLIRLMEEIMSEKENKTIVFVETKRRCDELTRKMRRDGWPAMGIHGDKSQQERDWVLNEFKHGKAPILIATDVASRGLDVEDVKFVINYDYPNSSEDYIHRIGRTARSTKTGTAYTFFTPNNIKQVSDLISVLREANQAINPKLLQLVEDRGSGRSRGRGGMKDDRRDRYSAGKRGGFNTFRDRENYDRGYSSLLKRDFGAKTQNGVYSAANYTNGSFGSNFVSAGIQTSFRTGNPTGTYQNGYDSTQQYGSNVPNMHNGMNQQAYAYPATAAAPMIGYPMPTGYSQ

Experiment [1] deals with HCT116 cells.
For experiment [2], the system named is XIAP, Bcl-2, Bax, γH2AX and Survivin. Conditions: 0, 50, 100 nM, 72 hours.
For experiment [3], the target named is DDX5-blocked Top1 (Homo sapiens, UniProt P17844). The format is biochemical. The protocol: Experimental condition: Top1 was used for 1 IU; DDX5 was used in 100 nM; and 1 μg supercoiled pRB322 DNA was used.
Experiment [4] concerns the target T1, Top1 (Homo sapiens, UniProt P11387).
T1 sequence (P11387 1-765): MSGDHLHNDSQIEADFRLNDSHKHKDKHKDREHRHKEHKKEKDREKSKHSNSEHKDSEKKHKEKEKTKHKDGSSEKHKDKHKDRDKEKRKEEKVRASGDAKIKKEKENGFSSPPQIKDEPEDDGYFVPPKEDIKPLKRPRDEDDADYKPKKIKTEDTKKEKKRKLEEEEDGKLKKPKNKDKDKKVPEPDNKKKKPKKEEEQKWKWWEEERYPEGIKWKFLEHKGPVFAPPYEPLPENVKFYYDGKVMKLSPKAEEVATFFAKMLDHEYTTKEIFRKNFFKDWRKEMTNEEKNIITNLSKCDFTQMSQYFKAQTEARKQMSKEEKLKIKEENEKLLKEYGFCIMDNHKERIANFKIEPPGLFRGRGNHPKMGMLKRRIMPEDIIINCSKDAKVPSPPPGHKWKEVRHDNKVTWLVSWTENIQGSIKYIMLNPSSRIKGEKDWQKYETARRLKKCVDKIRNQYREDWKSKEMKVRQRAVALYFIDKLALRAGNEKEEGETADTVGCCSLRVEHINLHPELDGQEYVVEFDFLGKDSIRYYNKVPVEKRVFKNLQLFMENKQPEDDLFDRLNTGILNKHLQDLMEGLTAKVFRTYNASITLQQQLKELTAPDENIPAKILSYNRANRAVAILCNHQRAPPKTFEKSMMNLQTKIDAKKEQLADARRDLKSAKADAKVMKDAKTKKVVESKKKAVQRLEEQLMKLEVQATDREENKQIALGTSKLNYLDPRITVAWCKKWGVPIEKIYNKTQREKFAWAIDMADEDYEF
Type of experiment: biochemical.

Experiment [5] deals with T2, DDX5 (Homo sapiens, UniProt P17844).
T2 construct: endogenous in cells; host or cells: HCT116
Type of experiment: cell-based.

For experiment [6], the system named is HCT116 cells. This is another data set of the same source.

The structures appear in SMILES notation.

Turning to `CC[C@@]1(O)C(=O)OCc2c1cc1n(c2=O)Cc2c-1nc1cc3c(cc1c2-c1ccc(F)c(OC)c1)OCO3` [Compound 7h], the cell migration entry in experiment [1] is on record as “concentration-dependent inhibition of HCT116 cell migration”. Besides, in experiment [2], the “expression of Bax and γH2AX” value is recorded as “upregulated”; the “expression of XIAP, Bcl-2 and Survivin” value is reported as “downregulated”. For the same compound, the “unblocking of DDX5-blocked Top1 activity” value in experiment [3] is “can unblock DDX5-blocked Top1 activity”. The “concentrations blocking Top1 nicking SC DNA activity” value in experiment [4] was “could only be blocked by 5 and 50 μM”. In addition, in experiment [5], the DDX5 expression entry is recorded as “able to decrease DDX5 expression”. Further, in experiment [6], the colony formation entry is recorded as “significantly inhibited the proliferation-induced colony formation”.
